# Measurements as given in IntAct's records for PubMed 35512704.
# B1: RAC-alpha serine/threonine-protein kinase (Homo sapiens), P31749 (parent)
# chain: MSDVAIVKEGWLHKRGEYIKTWRPRYFLLKNDGTFIGYKERPQDVDQREAPLNNFSVAQCQLMKTERPRPNTFIIRCLQWTTVIERTFHVETPEEREEWTTAIQTVADGLKKQEEEEMDFRSGSPSDNSGAEEMEVSLAKPKHRVTMNEFEYLKLLGKGTFGKVILVKEKATGRYYAMKILKKEVIVAKDEVAHTLTENRVLQNSRHPFLTALKYSFQTHDRLCFVMEYANGGELFFHLSRERVFSEDRARFYGAEIVSALDYLHSEKNVVYRDLKLENLMLDKDGHIKITDFGLCKEGIKDGATMKTFCGTPEYLAPEVLEDNDYGRAVDWWGLGVVMYEMMCGRLPFYNQDHEKLFELILMEEIRFPRTLGPEAKSLLSGLLKKDPKQRLGGGSEDAKEIMQHRFFAGIVWQHVYEKKLSPPFKPQVTSETDTRYFDEEFTAQMITITPPDQDDSMECVDSERRPHFPQFSYSASGTA
# Variants of: B1
# Conditions: with kdm5c_human KDM5C
row,Variant,effect of a mutation on the interaction
1,E17K,causing an interaction

# Variants of: B1
# Conditions: with maga6_human MAGEA6, P43360
row,Variant,effect of a mutation on the interaction
1,E17K,causing an interaction

# Variants of: B1
# Conditions: with m3k1_human MAP3K1, Q13233
row,Variant,effect of a mutation on the interaction
1,E17K,causing an interaction

# Variants of: B1
# Conditions: with mk10_human MAPK10, P53779
row,Variant,effect of a mutation on the interaction
1,E17K,causing an interaction

# Variants of: B1
# Conditions: with mk04_human MAPK4, P31152
row,Variant,effect of a mutation on the interaction
1,E17K,causing an interaction

# Variants of: B1
# Conditions: with mk07_human MAPK7, Q13164
row,Variant,effect of a mutation on the interaction
1,E17K,causing an interaction

# Variants of: B1
# Conditions: with sin1_human MAPKAP1, Q9BPZ7
row,Variant,effect of a mutation on the interaction
1,E17K,causing an interaction

# Variants of: B1
# Conditions: with mcl1_human MCL1
row,Variant,effect of a mutation on the interaction
1,E17K,causing an interaction

# Variants of: B1
# Conditions: with men1_human MEN1, O00255
row,Variant,effect of a mutation on the interaction
1,E17K,causing an interaction

# Variants of: B1
# Conditions: with mybb_human MYBL2, P10244
row,Variant,effect of a mutation on the interaction
1,E17K,causing an interaction

# Variants of: B1
# Conditions: with myc_human MYC
row,Variant,effect of a mutation on the interaction
1,E17K,causing an interaction

# Variants of: B1
# Conditions: with mycn_human MYCN
row,Variant,effect of a mutation on the interaction
1,E17K,causing an interaction

# Variants of: B1
# Conditions: with merl_human NF2, P35240
row,Variant,effect of a mutation on the interaction
1,E17K,causing an interaction

# Variants of: B1
# Conditions: with ikba_human NFKBIA
row,Variant,effect of a mutation on the interaction
1,E17K,causing an interaction

# Variants of: B1
# Conditions: with notc2_human NOTCH2, Q04721
row,Variant,effect of a mutation on the interaction
1,E17K,causing an interaction

# Variants of: B1
# Conditions: with ntrk2_human NTRK2, Q16620
row,Variant,effect of a mutation on the interaction
1,E17K,causing an interaction

# Variants of: B1
# Conditions: with pak3_human PAK3, O75914
row,Variant,effect of a mutation on the interaction
1,E17K,causing an interaction

# Variants of: B1
# Conditions: with prkn_human PRKN
row,Variant,effect of a mutation on the interaction
1,E17K,causing an interaction

# Variants of: B1
# Conditions: with pdcd1_human PDCD1, Q15116
row,Variant,effect of a mutation on the interaction
1,E17K,causing an interaction

# Variants of: B1
# Conditions: with pdk1_human PDK1, Q15118
row,Variant,effect of a mutation on the interaction
1,E17K,causing an interaction

# Variants of: B1
# Conditions: with pk3ca_human PIK3CA
row,Variant,effect of a mutation on the interaction
1,E17K,causing an interaction

# Variants of: B1
# Conditions: with pk3cb_human PIK3CB
row,Variant,effect of a mutation on the interaction
1,E17K,causing an interaction

# Variants of: B1
# Conditions: with dpoe1_human POLE
row,Variant,effect of a mutation on the interaction
1,E17K,causing an interaction

# Variants of: B1
# Conditions: with ppard_human PPARD
row,Variant,effect of a mutation on the interaction
1,E17K,causing an interaction

# Variants of: B1
# Conditions: with prdm1_human PRDM1, O75626
row,Variant,effect of a mutation on the interaction
1,E17K,causing an interaction

# Variants of: B1
# Conditions: with prex2_human PREX2, Q70Z35
row,Variant,effect of a mutation on the interaction
1,E17K,causing an interaction

# Variants of: B1
# Conditions: with aapk2_human PRKAA2, P54646
row,Variant,effect of a mutation on the interaction
1,E17K,causing an interaction

# Variants of: B1
# Conditions: with rac1_human RAC1
row,Variant,effect of a mutation on the interaction
1,E17K,causing an interaction

# Variants of: B1
# Conditions: with rara_human RARA
row,Variant,effect of a mutation on the interaction
1,E17K,causing an interaction

# Variants of: B1
# Conditions: with rhoa_human RHOA
row,Variant,effect of a mutation on the interaction
1,E17K,causing an interaction

# Variants of: B1
# Conditions: with rictr_human RICTOR
row,Variant,effect of a mutation on the interaction
1,E17K,causing an interaction

# Variants of: B1
# Conditions: with rl11_human RPL11
row,Variant,effect of a mutation on the interaction
1,E17K,causing an interaction

# Variants of: B1
# Conditions: with rl5_human RPL5
row,Variant,effect of a mutation on the interaction
1,E17K,causing an interaction

# Variants of: B1
# Conditions: with rptor_human RPTOR
row,Variant,effect of a mutation on the interaction
1,E17K,causing an interaction

# Variants of: B1
# Conditions: with runx1_human RUNX1
row,Variant,effect of a mutation on the interaction
1,E17K,causing an interaction

# Variants of: B1
# Conditions: with sdha_human SDHA
row,Variant,effect of a mutation on the interaction
1,E17K,causing an interaction

# Variants of: B1
# Conditions: with setb1_human SETDB1
row,Variant,effect of a mutation on the interaction
1,E17K,causing an interaction

# Variants of: B1
# Conditions: with skp2_human SKP2
row,Variant,effect of a mutation on the interaction
1,E17K,causing an interaction

# Variants of: B1
# Conditions: with snf5_human SMARCB1
row,Variant,effect of a mutation on the interaction
1,E17K,causing an interaction

# Variants of: B1
# Conditions: with smuf1_human SMURF1, Q9HCE7
row,Variant,effect of a mutation on the interaction
1,E17K,causing an interaction

# Variants of: B1
# Conditions: with stk38_human STK38, Q15208
row,Variant,effect of a mutation on the interaction
1,E17K,causing an interaction

# Variants of: B1
# Conditions: with eloc_human ELOC
row,Variant,effect of a mutation on the interaction
1,E17K,causing an interaction

# Variants of: B1
# Conditions: with tead4_human TEAD4, Q15561
row,Variant,effect of a mutation on the interaction
1,E17K,causing an interaction

# Variants of: B1
# Conditions: with tnr14_human TNFRSF14, Q92956
row,Variant,effect of a mutation on the interaction
1,E17K,causing an interaction

# Variants of: B1
# Conditions: with tpx2_human TPX2, Q9ULW0
row,Variant,effect of a mutation on the interaction
1,E17K,causing an interaction

# Variants of: B1
# Conditions: with tsc2_human TSC2, P49815
row,Variant,effect of a mutation on the interaction
1,E17K,causing an interaction

# Variants of: B1
# Conditions: with tshr_human TSHR
row,Variant,effect of a mutation on the interaction
1,E17K,causing an interaction

# Variants of: B1
# Conditions: with vhl_human VHL
row,Variant,effect of a mutation on the interaction
1,E17K,causing an interaction

# Variants of: B1
# Conditions: with wee1_human WEE1, P30291
row,Variant,effect of a mutation on the interaction
1,E17K,causing an interaction

# Variants of: B1
# Conditions: with wnk1_human WNK1, Q9H4A3
row,Variant,effect of a mutation on the interaction
1,E17K,causing an interaction

# Variants of: B1
# Conditions: with wwtr1_human WWTR1
row,Variant,effect of a mutation on the interaction
1,E17K,causing an interaction

# Variants of: B1
# Conditions: with arrb2_human ARRB2
row,Variant,effect of a mutation on the interaction
1,E17K,increasing interaction strength

# Variants of: B1
# Conditions: with atm_human ATM
row,Variant,effect of a mutation on the interaction
1,E17K,increasing interaction strength

# Variants of: B1
# Conditions: with aurkb_human AURKB
row,Variant,effect of a mutation on the interaction
1,E17K,increasing interaction strength

# Variants of: B1
# Conditions: with bard1_human BARD1, Q99728
row,Variant,effect of a mutation on the interaction
1,E17K,increasing interaction strength

# Variants of: B1
# Conditions: with bcor_human BCOR
row,Variant,effect of a mutation on the interaction
1,E17K,increasing interaction strength

# Variants of: B1
# Conditions: with chd1l_human CHD1L
row,Variant,effect of a mutation on the interaction
1,E17K,increasing interaction strength

# Variants of: B1
# Conditions: with ch3l1_human CHI3L1, P36222
row,Variant,effect of a mutation on the interaction
1,E17K,increasing interaction strength

# Variants of: B1
# Conditions: with e2f2_human E2F2, Q14209
row,Variant,effect of a mutation on the interaction
1,E17K,increasing interaction strength

# Variants of: B1
# Conditions: with epha7_human EPHA7, Q15375
row,Variant,effect of a mutation on the interaction
1,E17K,increasing interaction strength
